We go through 19 compounds from US20090253669A1, “Substituted Sulfonamide Compounds” (GRUENENTHAL GmbH, priority 2008, published 2009).

The chains behind the UniProt entries cited, without tags or fusion partners.
UniProt P35372, whole entry, looked up: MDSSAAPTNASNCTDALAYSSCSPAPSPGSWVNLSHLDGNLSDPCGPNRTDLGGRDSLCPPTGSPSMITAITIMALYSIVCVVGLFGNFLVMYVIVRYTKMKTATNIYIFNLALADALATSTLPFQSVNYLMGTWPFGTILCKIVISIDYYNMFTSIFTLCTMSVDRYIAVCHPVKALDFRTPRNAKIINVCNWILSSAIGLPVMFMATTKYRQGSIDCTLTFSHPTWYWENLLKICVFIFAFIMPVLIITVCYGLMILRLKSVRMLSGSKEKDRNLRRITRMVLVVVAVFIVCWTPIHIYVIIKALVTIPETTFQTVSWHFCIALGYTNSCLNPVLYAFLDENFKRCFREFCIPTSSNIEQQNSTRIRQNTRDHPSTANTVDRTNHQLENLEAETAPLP

The experiment has as its target human μ opiate receptor (Homo sapiens, UniProt P35372). Description: [3H]-naloxone displacement, SPA, membranes of CHO-K1 cells. The settings on record: 1 μM test substance; inhibition of specific binding of 1 nmol/l [3H]-naloxone.
Take `CN1CCN(C2(CCc3ccccc3)CCC(CN(C)C(=O)COCC3CCCCN3S(=O)(=O)c3c(Cl)cc(Cl)cc3Cl)CC2)CC1` (stereo not shown) [Compound 161, N-methyl-N-((4-(4-methylpiperazin-1-yl)-4-phenethylcyclohexyl)methyl)-2-((1-(2,4,6-trichlorophenylsulfonyl)piperidin-2-yl)methoxy)acetamide]: the “μ opioid receptor [1 μM] % inhibition” value was found to be 13%.
Turning to `COc1cc(C)c(S(=O)(=O)N(C)CCOCC(=O)N(C)CCCC2CCC(CCc3ccccc3)(N3CCCC3)CC2)c(C)c1` (stereo not shown) [Compound 91, 2-(2-(4-methoxy-N,2,6-trimethylphenylsulfonamido)ethoxy)-N-methyl-N-(3-(4-phenethyl-4-(pyrrolidin-1-yl)cyclohexyl)propyl)acetamide], the “μ opioid receptor [1 μM] % inhibition” value is given as 7%.
On to `CN(CCC1CCC(CCc2ccccc2)(N(C)C)CC1)C(=O)CC(NS(=O)(=O)c1ccc2ccccc2c1)c1ccccc1` (stereo not shown) [Compound 102, N-(2-(4-(dimethylamino)-4-phenethylcyclohexyl)ethyl)-N-methyl-3-(naphthalene-2-sulfonamido)-3-phenylpropanamide], for which the “μ opioid receptor [1 μM] % inhibition” value was 81%.
Turning to `COc1cc(C)c(S(=O)(=O)N2CCCC2COCC(=O)NC2CCC(c3ccccc3)(N3CCCC3)CC2)c(C)c1` (stereo not shown) [Compound 145, 2-((1-(4-methoxy-2,6-dimethylphenylsulfonyl)pyrrolidin-2-yl)methoxy)-N-(4-phenyl-4-(pyrrolidin-1-yl)cyclohexyl)acetamide], the “μ opioid receptor [1 μM] % inhibition” value worked out at 93%.
In the case of `CN(CCCC1CCC(Cc2ccccc2)(N2CCCC2)CC1)C(=O)CC1CCCCN1S(=O)(=O)c1cccc(C(F)(F)F)c1` (stereo not shown) [Compound 93, N-(3-(4-benzyl-4-(pyrrolidin-1-yl)cyclohexyl)propyl)-N-methyl-2-(1-(3-(trifluoromethyl)phenylsulfonyl)piperidin-2-yl)acetamide], the “μ opioid receptor [1 μM] % inhibition” value was found to be 11%.
As to `COc1cc(C)c(S(=O)(=O)N(C)CCOCC(=O)N2CCC(c3ccccc3)(N3CCN(c4ccncc4)CC3)CC2)c(C)c1` [Compound 69, 4-methoxy-N,2,6-trimethyl-N-(2-(2-oxo-2-(4-phenyl-4-(4-(pyridin-4-yl)piperazin-1-yl)piperidin-1-yl)ethoxy)ethyl)benzenesulfonamide], the “μ opioid receptor [1 μM] % inhibition” value was determined as 36%.
As for `Cc1cc(S(=O)(=O)N2CCCCC2CCC(=O)N(C)CC2CCC(c3ccccc3)(N3CCCC3)CC2)c(C)cc1Cl` (stereo not shown) [Compound 140, 3-(1-(4-chloro-2,5-dimethylphenylsulfonyl)piperidin-2-yl)-N-methyl-N-((4-phenyl-4-(pyrrolidin-1-yl)cyclohexyl)methyl)propanamide], the figure is 28%; as for `CN(CCOCC(=O)NC1CCC(Cc2ccccc2)(N2CCCC2)CC1)S(=O)(=O)c1c(Cl)cc(Cl)cc1Cl` (stereo not shown) [Compound 189, N-(4-benzyl-4-(pyrrolidin-1-yl)cyclohexyl)-2-(2-(2,4,6-trichloro-N-methylphenylsulfonamido)ethoxy)acetamide], 54%; as for `COc1cc(C)c(S(=O)(=O)N2CCCCC2COCC(=O)N(C)CCC2CCC(CCc3ccccc3)(N(C)C)CC2)c(C)c1` (stereo not shown) [Compound 73, N-(2-(4-(dimethylamino)-4-phenethylcyclohexyl)ethyl)-2-((1-(4-methoxy-2,6-dimethylphenylsulfonyl)piperidin-2-yl)methoxy)-N-methylacetamide], 40%.
Under `CN(CCC1CCC(Cc2ccccc2)(N2CCCC2)CC1)C(=O)COCC1CCc2ccccc2N1S(=O)(=O)c1ccc(Cl)c(Cl)c1` (stereo not shown) [Compound 104, N-(2-(4-benzyl-4-(pyrrolidin-1-yl)cyclohexyl)ethyl)-2-((1-(3,4-dichlorophenylsulfonyl)-1,2,3,4-tetrahydroquinolin-2-yl)methoxy)-N-methylacetamide] stands 26%; under `COc1cc(C)c(S(=O)(=O)N2CCCCC2COCC(=O)N2CCC(c3ccc(F)cc3)(N3CCN(C)CC3)CC2)c(C)c1` (stereo not shown) [Compound 70, 1-(4-(4-fluorophenyl)-4-(4-methylpiperazin-1-yl)piperidin-1-yl)-2-((1-(4-methoxy-2,6-dimethylphenylsulfonyl)piperidin-2-yl)methoxy)ethanone], 13%; under `O=C(COCC1CCCCN1S(=O)(=O)c1c(Cl)cc(Cl)cc1Cl)NC1CCC(c2ccccc2)(N2CCCC2)CC1` (stereo not shown) [Compound 142, N-(4-phenyl-4-(pyrrolidin-1-yl)cyclohexyl)-2-((1-(2,4,6-trichlorophenylsulfonyl)piperidin-2-yl)methoxy)acetamide], 98%.
With `COc1cc(C)c(S(=O)(=O)N(C)CCOCC(=O)NC2CCC(Cc3ccccc3)(N3CCCCCC3)CC2)c(C)c1` (stereo not shown) [Compound 20, N-(4-(azepan-1-yl)-4-benzylcyclohexyl)-2-(2-(4-methoxy-N,2,6-trimethylphenylsulfonamido)ethoxy)acetamide], the “μ opioid receptor [1 μM] % inhibition” value is on record as 7%.
Under `COc1cc(C)c(S(=O)(=O)N(C)CCOCC(=O)NC2CCC(Cc3ccccc3)(N3CCCC3)CC2)c(C)c1` (stereo not shown) [Compound 170, N-(4-benzyl-4-(pyrrolidin-1-yl)cyclohexyl)-2-(2-(4-methoxy-N,2,6-trimethylphenylsulfonamido)ethoxy)acetamide] stands 29%; under `COc1cc(C)c(S(=O)(=O)N2CCCC(COCC(=O)NC3CCC(Cc4ccccc4)(N4CCCC4)CC3)C2)c(C)c1` (stereo not shown) [Compound 180, N-(4-benzyl-4-(pyrrolidin-1-yl)cyclohexyl)-2-((1-(4-methoxy-2,6-dimethylphenylsulfonyl)piperidin-3-yl)methoxy)acetamide], 48%.
With `COc1cc(C)c(S(=O)(=O)N2CCCC2COCC(=O)N(C)CC2CCC(Cc3ccccc3)(N3CCN(C)CC3)CC2)c(C)c1` (stereo not shown) [Compound 154, N-((4-benzyl-4-(4-methylpiperazin-1-yl)cyclohexyl)methyl)-2-((1-(4-methoxy-2,6-dimethylphenylsulfonyl)pyrrolidin-2-yl)methoxy)-N-methylacetamide], the “μ opioid receptor [1 μM] % inhibition” value was determined as 13%.
For the compound `Cc1cc(S(=O)(=O)N2CCCCC2CCC(=O)N2CCC(CCc3ccccc3)(N(C)C)CC2)c(C)cc1Cl` (stereo not shown) [Compound 137, 3-(1-(4-chloro-2,5-dimethylphenylsulfonyl)piperidin-2-yl)-1-(4-(dimethylamino)-4-phenethylpiperidin-1-yl)propan-1-one], the “μ opioid receptor [1 μM] % inhibition” value came to 34%.
As for `COc1cc(C)c(S(=O)(=O)N2CCC(OCC(=O)NC3CCC(CCc4ccccc4)(N(C)C)CC3)C2)c(C)c1` (stereo not shown) [Compound 5, N-(4-(dimethylamino)-4-phenethylcyclohexyl)-2-(1-(4-methoxy-2,6-dimethylphenylsulfonyl)pyrrolidin-3-yloxy)acetamide], the figure is 41%.
Take `COc1cc(C)c(S(=O)(=O)N2CCCCC2COCC(=O)N(C)CC2CCC(Cc3ccccc3)(N3CCCC3)CC2)c(C)c1` (stereo not shown) [Compound 78, N-((4-benzyl-4-(pyrrolidin-1-yl)cyclohexyl)methyl)-2-((1-(4-methoxy-2,6-dimethylphenylsulfonyl)piperidin-2-yl)methoxy)-N-methylacetamide]: the “μ opioid receptor [1 μM] % inhibition” value is given as 15%.
